The values that follow come from ChEMBL document CHEMBL4673253, “Discovery of EST73502, a Dual μ-Opioid Receptor Agonist and σ Receptor Antagonist Clinical Candidate for the Treatment of Pain” (J Med Chem, 2020).

Experiment [1] has as its system Mus musculus. Briefly: Antinociceptive activity in CD1 mouse at 10 to 40 mg/kg, po co-treated with 2 mg/kg, sc MOR antagonist naloxone by paw pressure test. Conditions: dose 10-40 mg/kg.
Experiment [2] relates to Mus musculus. In words: Antinociceptive activity in orally dosed CD1 mouse assessed as by paw pressure test. The experiment is classed as functional.

Activity calls are given as the source filed them. The rule behind the calls is not given here.

Turning to `CCN1CC2(CCN(CCc3cc(F)ccc3F)CC2)O[C@H](C)C1=O`, in experiment [1], the result was inactive. The Activity result in experiment [2] is “Dose-dependent effect”.
